# Apparent affinities of Ab-14 variants for a coronavirus HR2 peptide

Source: Engelhart et al. 2022 (doi:10.1038/s41597-022-01779-4), MIT Lincoln Laboratory and A-Alpha Bio; data file from the FLAb repository.

Target: peptide PDVDLGDISGINAS, taken from heptad repeat 2 (HR2) of SARS-CoV-2 spike.

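The parent was found by panning a naive human phage display library on the peptide. AAYL49 was designed without a model: most single CDR substitutions and a random sample of double and triple ones. The assay is AlphaSeq: two haploid yeast populations carry antibody and antigen on their surface. The frequency of each diploid, read from paired DNA barcodes, reflects how well the two displayed proteins bind. The ratio of observed to expected reads was calibrated, replicate by replicate, on BCL2-family standards whose Kd was known from biolayer interferometry. Each pool was mated in three replicate cultures.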

Parent: Ab-14, a human scFv built as VH, three GGGGS repeats, VL. Only the CDRs of the heavy chain vary.
VH: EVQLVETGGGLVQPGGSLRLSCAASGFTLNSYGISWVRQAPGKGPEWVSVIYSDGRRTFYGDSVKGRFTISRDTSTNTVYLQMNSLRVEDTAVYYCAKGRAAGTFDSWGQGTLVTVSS
VL: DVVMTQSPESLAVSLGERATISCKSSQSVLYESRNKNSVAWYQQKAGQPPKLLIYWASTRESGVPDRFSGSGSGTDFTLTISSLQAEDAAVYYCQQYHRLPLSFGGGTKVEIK

Each variant is given by its three heavy chain CDRs, as the data file delimits them; those of the parent are GFTLNSYGIS, VIYSDGRRTFYGDSVK, GRAAGTFDS.
Values are log10 of the apparent Kd in nM; lower means stronger binding.
Averages over replicates are reported, and they cover detected replicates only.
"nd" marks a missing value. The strain was present, yet no cells mated with the target were sequenced in that replicate, which points to weak or no binding.

| # | log10 Kd, replicates | log10 Kd (nM), mean | CDR-H1 | CDR-H2 | CDR-H3 |
|---|---|---|---|---|---|
| 1 | nd / nd / nd | nd | GFTFNSYGIS | VIYSDGRRTFYNDSAK | GRAAGTFDS |
| 2 | nd / nd / nd | nd | GFTPNSYGIS | VIYSDSRRTFYGDSAK | GRAAGTFDS |
| 3 | nd / nd / nd | nd | GSTLNSYGIS | VILSDGRRTFYMDSVK | GRAAGTFDS |
| 4 | nd / nd / nd | nd | GFTLNSYGIS | VIYSDPRRTFYGDSEK | GRAAGTFLS |
| 5 | nd / nd / nd | nd | GFTLQSYGIS | VIYMDGRRTFYGDSVK | GRAAGTFDR |
| 6 | nd / 3.48 / nd | 3.48 | GFTNNSYGWS | VIYWDGRRTFYGDSVK | GRAAGTFDS |
| 7 | 1.26 / 1.29 / 1.41 | 1.32 | GFTLNSYGIS | VIYADGRRTFYGRSVK | GRLAGTFDS |
| 8 | nd / nd / nd | nd | GFVLNSYGIN | VIYVDGRRTFYGDSVK | GRAAGTFDS |
| 9 | 4.52 / nd / nd | 4.52 | GFTLNSDGIS | VIYSCGRRTFYCDSVK | GRAAGTFDS |
| 10 | nd / nd / nd | nd | GFTLNSYGIS | VIYSDGRRTFYGDSVK | YLAARTFDS |
| 11 | nd / 4.36 / nd | 4.36 | GFTLNSIGIS | VIYSDGRRTFYGHSVK | KRAAGTFDS |
| 12 | 0.64 / 0.82 / 0.94 | 0.80 | GFTLNSYGIS | VIYSDGRRTVYGDSVK | GRAAQTFDW |
| 13 | nd / nd / nd | nd | GFTLNSYGIS | VIYSDGRRTFHGDVVK | GRWAGTFDS |
| 14 | nd / nd / nd | nd | GFTLNSYGIS | VIYSDGRRTAYDDSEK | GRAAGTFDS |
| 15 | 4.92 / nd / 4.94 | 4.93 | GFTYNSYGIS | VIYSDGRRTFYGDAVK | GRAAGRFDS |
| 16 | 0.35 / 0.88 / 0.62 | 0.62 | GFTLNSYGIS | VIYSDGRRTFYGDSVK | GRAPGTFTH |
| 17 | nd / nd / nd | nd | GFTLNSYGIS | VIMSVGRRTAYGDSVK | GRAAGTFDS |
| 18 | 4.18 / nd / nd | 4.18 | GFTLNSYGIW | VIYSDGRRTFYGDSVK | GRAAGTFDT |
| 19 | nd / nd / 2.46 | 2.46 | GFTLQSYIIS | VIPSDGRRTFYGDSVK | GRAAGTFDS |
| 20 | 2.42 / 2.52 / 2.52 | 2.49 | GFTLNSYGIS | VIYSDGRATKYGDSVK | GRAAGTFDS |
| 21 | nd / nd / nd | nd | GFTLNSYGIS | VIYSDGRRTFYWTSVK | GRAAGTKDS |
| 22 | nd / nd / nd | nd | GFTLNSYGIS | VIYSDGRRTFYGDAVK | SRAASTFDS |
| 23 | nd / nd / nd | nd | GFTLYSYGIS | TIYSDGRRTFYCDSVK | GRAAGTFDS |
| 24 | nd / nd / 3.36 | 3.36 | GFTLNSYKIS | VIYSDGRRTFYGDSRK | GRSAGTFDS |
| 25 | nd / nd / 3.69 | 3.69 | GFTLNAYGIS | VIYSDDRRTFYQDSVK | GRAAGTFDS |
| 26 | nd / 4.26 / 3.90 | 4.08 | GFYLNSAGIS | VIYSDGRRTFYGDSVK | GRAKGTFDS |
| 27 | 2.09 / 2.11 / 2.19 | 2.13 | GFTLNSYGIS | VIYSDGRRTFYGDSVK | GQAAGTTDS |
| 28 | 5.07 / nd / nd | 5.07 | GFTLNSYGIN | VIYSDGRRTFYGDSVH | GRALGTFDS |
| 29 | 4.14 / 4.50 / 3.67 | 4.10 | GFTKNSYGIS | VIYSDGRRTFYGDRVK | LRAAGTFDS |
| 30 | nd / nd / nd | nd | GFTLNCYGIS | VIYSDGRRTFYGDSVK | GRAAGTFYS |
| 31 | nd / nd / nd | nd | GFTLNSYGIS | VYDSDGRRTFYGDSVK | GRAAGTFDL |
| 32 | 4.39 / nd / 5.71 | 5.05 | GFTLNSYGIS | VIMSDGRRTFYGDSVK | GRYAGTIDS |
| 33 | nd / nd / nd | nd | GFTLNSYGIS | VIYSAGRRTFYGDSAK | GRAAGCFDS |
| 34 | nd / nd / nd | nd | GFTLNSYGIS | VIYWDGRRTFHGDSVK | GRAAGTFDV |
| 35 | 3.14 / 3.93 / 2.91 | 3.33 | SATLNSYGIS | VIYSDGRRTFYGKSVK | GRAAGTFDS |
| 36 | nd / nd / nd | nd | GFTLNSYGIS | VIYDDGYRTFYGKSVK | GRAAGTFDS |
| 37 | nd / nd / nd | nd | AFTLNSYGIS | VIYSDDRRTFYGDSVK | GRAAGTFDS |
| 38 | 4.34 / 5.44 / nd | 4.89 | GFTIISYGIS | VIYSDGRRTFYGDSVK | GRAAWTFDS |
| 39 | nd / nd / nd | nd | GFSPNSYGIS | VIYSDGRRDFYGDSVK | GRAAGTFDS |
| 40 | nd / 3.93 / nd | 3.93 | GFRLNSYGIS | VIISDGRRTFYGFSVK | GRAAGTFDS |
| 41 | 1.84 / 2.76 / 1.13 | 1.91 | GFTLNSYGIS | VIYSDGRRVFYGDSVK | GRYAGTVDS |

The last 5 entries again:

| CDR-H1 | CDR-H2 | CDR-H3 | log10 Kd, replicates | log10 Kd (nM), mean |
|---|---|---|---|---|
| AFTLNSYGIS | VIYSDDRRTFYGDSVK | GRAAGTFDS | nd / nd / nd | nd |
| GFTIISYGIS | VIYSDGRRTFYGDSVK | GRAAWTFDS | 4.34 / 5.44 / nd | 4.89 |
| GFSPNSYGIS | VIYSDGRRDFYGDSVK | GRAAGTFDS | nd / nd / nd | nd |
| GFRLNSYGIS | VIISDGRRTFYGFSVK | GRAAGTFDS | nd / 3.93 / nd | 3.93 |
| GFTLNSYGIS | VIYSDGRRVFYGDSVK | GRYAGTVDS | 1.84 / 2.76 / 1.13 | 1.91 |

As a blank, each scFv also met three strains without target: over library AAYL49, 15% of these pairings were detected, typically at 4.06 and seldom below 2.83.
In this assay the parent's reference entry averaged 0.65; its copy inside this library read 4.11 (one replicate of three).